For the data set, the system named is Fumonisin B1. Description: purified protein, by the assay type. The note with it: other: recombinant AnFAO_15309; pH 7.0.

From patent publication US20210337838A1, “RECOMBINANT EXPRESSION OF FUMONISIN AMINE OXIDASE” (priority 2018, published 2021) come the findings set out here.

One may read the Km as the concentration of substrate that gives half-maximal velocity. For orientation: kcat means the number of substrate molecules converted per active site and unit of time at saturation. In general, kcat/Km refers to the turnover number divided by the Michaelis constant.

For “AnFAO_15309 (Aspergillus niger CBS 513.88)”, the Km worked out at 390.6 µM, the turnover number (kcat) stood at 0.145 s⁻¹ and the kcat/Km was determined as 370 M⁻¹ s⁻¹.
